Test results reported in patent US20070259805A1 (Daiichi Sankyo, published 2007).

Tests used:
Assay in all cases: GST pull-down on glutathione Sepharose 4B; biotin-labelled in vitro translated protein detected with streptavidin-HRP on a blot
[1] = molecular target: T1, CLOCK (circadian locomoter output cycles kaput protein), synthesized in vitro with Transcend … (human, UniProt O15516 1-846, biotinylated lysines incorporated by Transcend Biotin-Lysyl-tRNA; positions not stated)
T1 construct: Made with the TNT quick coupled transcription/translation system from a pcDNA3.1/Myc.His plasmid; also called KIAA 0334
T1 sequence: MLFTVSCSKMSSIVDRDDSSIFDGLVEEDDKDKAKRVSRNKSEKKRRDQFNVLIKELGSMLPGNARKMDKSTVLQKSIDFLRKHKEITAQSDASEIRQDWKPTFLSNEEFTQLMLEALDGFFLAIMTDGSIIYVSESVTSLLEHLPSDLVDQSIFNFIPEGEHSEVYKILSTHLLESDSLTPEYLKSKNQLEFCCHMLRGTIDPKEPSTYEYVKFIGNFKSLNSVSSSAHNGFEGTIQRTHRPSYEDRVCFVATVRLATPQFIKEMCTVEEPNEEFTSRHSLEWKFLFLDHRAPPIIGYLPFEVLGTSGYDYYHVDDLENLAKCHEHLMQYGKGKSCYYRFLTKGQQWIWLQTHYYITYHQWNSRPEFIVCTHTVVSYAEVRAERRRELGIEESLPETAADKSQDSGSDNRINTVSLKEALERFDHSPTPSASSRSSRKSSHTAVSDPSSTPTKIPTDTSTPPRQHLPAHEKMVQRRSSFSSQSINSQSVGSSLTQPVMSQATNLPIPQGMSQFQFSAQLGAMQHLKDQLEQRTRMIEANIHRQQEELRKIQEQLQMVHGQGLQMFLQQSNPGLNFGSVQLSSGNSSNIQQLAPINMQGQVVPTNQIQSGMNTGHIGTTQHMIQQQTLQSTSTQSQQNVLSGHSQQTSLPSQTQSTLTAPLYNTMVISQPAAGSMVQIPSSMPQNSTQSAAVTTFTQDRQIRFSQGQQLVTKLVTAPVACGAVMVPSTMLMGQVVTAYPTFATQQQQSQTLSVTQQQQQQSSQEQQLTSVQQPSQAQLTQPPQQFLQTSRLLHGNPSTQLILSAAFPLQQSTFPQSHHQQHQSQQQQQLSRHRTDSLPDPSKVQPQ
Description: (§1) The resin was subjected to centrifugation at 10,000 rpm at 4° C. for 1 minute to recover it, and washed with 0.5 ml of the binding buffer for 4 times. Then, 20 μl of 2×SDS-PAGE sample buffer containing 10% β-mercaptoethanol was added thereto and boiled for 3 minutes. After that, the resin was precipitated by centrifugation, and resultant supernatant was loaded onto 5-20% polyacrylamide gel to separate proteins contained in the supernatant. The proteins were transferred from polyacrylamide gel to PVDF membrane to detect co-precipitated protein by using horseradish peroxidase conjugated streptavidin (streptavidin-HRP) and ECL Western Blotting Detection, System (Amersham Biosciences). Meanwhile, in order to determine the position of HLF, ELK4 or CLOCK separated in polyacrylamide gel, and to confirm the expression amounts of these three kinds of proteins to be enough for carrying out a binding assay, each of the TNT reaction solutions was loaded onto polyacrylamide gel to detect each expressed protein in the same manner as described above.

[2] = molecular target: T2, HLF (hepatic leukemia factor), synthesized in vitro with Transcend Biotin-Lysyl-tRNA from pcDNA3.1/His (human, UniProt Q16534 1-295, biotinylated lysines incorporated by Transcend Biotin-Lysyl-tRNA; positions not stated)
T2 construct: Made with the TNT quick coupled transcription/translation system from a pcDNA3.1/His plasmid; also called BLF
T2 sequence: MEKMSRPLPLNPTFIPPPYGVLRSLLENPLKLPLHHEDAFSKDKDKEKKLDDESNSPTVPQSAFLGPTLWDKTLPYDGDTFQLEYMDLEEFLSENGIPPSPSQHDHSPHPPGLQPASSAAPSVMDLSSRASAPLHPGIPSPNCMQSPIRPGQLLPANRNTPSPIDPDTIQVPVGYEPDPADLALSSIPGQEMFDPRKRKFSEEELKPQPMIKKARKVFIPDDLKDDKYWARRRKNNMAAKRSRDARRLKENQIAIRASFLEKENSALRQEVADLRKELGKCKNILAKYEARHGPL
Description: as §1

[3] = molecular target: T3, ELK4 (ETS-domain protein Elk-4), synthesized in vitro with Transcend Biotin-Lysyl-tRNA from pcDNA3.1/V5-His (human, UniProt P28324 1-372, biotinylated lysines incorporated by Transcend Biotin-Lysyl-tRNA; positions not stated)
T3 construct: Made with the TNT quick coupled transcription/translation system; The vector is printed as 'pcDNA3.1N5.His'
T3 sequence: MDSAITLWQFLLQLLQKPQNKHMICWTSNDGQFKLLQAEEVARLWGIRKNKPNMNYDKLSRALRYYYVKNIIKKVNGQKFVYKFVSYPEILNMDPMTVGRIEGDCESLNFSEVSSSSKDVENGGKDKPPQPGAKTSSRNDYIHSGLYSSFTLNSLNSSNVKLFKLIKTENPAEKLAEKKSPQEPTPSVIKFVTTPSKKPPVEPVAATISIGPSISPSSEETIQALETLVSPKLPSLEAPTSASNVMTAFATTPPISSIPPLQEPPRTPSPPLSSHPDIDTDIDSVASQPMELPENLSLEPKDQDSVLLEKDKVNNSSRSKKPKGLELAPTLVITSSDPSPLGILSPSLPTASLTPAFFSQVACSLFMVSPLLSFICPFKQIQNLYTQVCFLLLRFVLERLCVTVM
Description: as §1

Measured: binding result

B1: GST (glutathione S-transferase), purified, negative control (other, UniProt P08515 1-218, looked up)
chain: MSPILGYWKIKGLVQPTRLLLEYLEEKYEEHLYERDEGDKWRNKKFELGLEFPNLPYYIDGDVKLTQSMAIIRYIADKHNMLGGCPKERAEISMLEGAVLDIRYGVSRIAYSKDFETLKVDFLSKLPEMLKMFEDRLCHKTYLNGDHVTHPDFMLYDALDVVLYMDPMCLDAFPKLVCFKKRIEAIPQIDKYLKSSKYIAWPLQGWQATFGGGDHPPK
notes: Negative control of the pull-down; Any vector-encoded C-terminal residues are not described
no binding: [1] | [2] | [3]
